These are literature values, as cited in US5686426A, “Dicarboxymethylated glycolipid derivatives as cell adhesion inhibitors” (Bristol-Myers Squibb Company, priority 1994, dated 1997).

The data set concerns the target T1, P-selectin (Homo sapiens, UniProt P16109).
T1 sequence (P16109 42-830): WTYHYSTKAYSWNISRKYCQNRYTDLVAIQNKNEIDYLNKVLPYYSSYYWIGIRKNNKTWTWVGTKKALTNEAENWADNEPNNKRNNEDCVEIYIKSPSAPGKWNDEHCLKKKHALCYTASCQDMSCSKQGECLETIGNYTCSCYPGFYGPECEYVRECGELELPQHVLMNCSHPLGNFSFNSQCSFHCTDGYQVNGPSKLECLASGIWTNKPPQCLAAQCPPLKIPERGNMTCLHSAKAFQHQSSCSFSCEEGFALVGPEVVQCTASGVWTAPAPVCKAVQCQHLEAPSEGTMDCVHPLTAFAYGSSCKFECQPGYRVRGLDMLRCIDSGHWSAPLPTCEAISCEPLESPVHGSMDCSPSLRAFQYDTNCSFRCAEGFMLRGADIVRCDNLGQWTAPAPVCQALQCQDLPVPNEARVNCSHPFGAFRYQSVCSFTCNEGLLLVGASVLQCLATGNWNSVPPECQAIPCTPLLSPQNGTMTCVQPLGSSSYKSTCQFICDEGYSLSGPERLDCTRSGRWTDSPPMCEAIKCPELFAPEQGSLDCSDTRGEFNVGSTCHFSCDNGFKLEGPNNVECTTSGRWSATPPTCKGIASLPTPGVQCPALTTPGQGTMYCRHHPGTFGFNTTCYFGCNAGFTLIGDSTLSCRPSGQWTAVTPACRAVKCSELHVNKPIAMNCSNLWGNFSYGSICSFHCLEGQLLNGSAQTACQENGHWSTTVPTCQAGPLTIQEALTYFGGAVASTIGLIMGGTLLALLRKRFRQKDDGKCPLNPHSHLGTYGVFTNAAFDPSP
The following applies: literature; cited from earlier work.

Regarding sialyl-Lewis^x, the “binding to P-selectin (in words)” value is on record as “shown to bind”.
